Assay results as given in patent US4451448A, “1-Substituted tricyclic quinazolinones useful as tranquilizers” (Sandoz, Inc., priority 1982, dated 1984).

System: isolated calf brain benzodiazepine receptors
Assay: Flunitrazepam Receptor Binding Assay (FBA TEST No. 1), displacement of 3H-flunitrazepam
Details: compound at final concentration of 1×10^-6 M; calf caudate tissue; 1 µM

CNC1=Nc2ccc(Cl)cc2C(c2ccccc2)=[N+]([O-])C1 [chlordiazepoxide, reference compound]
percent specifically bound 3H-flunitrazepam compared to control: 44 % of control
